The list shows a part of the results, in another mix than the full data. Active and inactive are the calls of the source.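 How the source made its calls: active means over 50% inhibition of tissue-nonspecific alkaline phosphatase at 20 µM in the single-dose screen; inactive means the rest.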

Protein sequences, listed by entry. Tags and fused reporters are not part of them.
UniProt P05186, whole entry: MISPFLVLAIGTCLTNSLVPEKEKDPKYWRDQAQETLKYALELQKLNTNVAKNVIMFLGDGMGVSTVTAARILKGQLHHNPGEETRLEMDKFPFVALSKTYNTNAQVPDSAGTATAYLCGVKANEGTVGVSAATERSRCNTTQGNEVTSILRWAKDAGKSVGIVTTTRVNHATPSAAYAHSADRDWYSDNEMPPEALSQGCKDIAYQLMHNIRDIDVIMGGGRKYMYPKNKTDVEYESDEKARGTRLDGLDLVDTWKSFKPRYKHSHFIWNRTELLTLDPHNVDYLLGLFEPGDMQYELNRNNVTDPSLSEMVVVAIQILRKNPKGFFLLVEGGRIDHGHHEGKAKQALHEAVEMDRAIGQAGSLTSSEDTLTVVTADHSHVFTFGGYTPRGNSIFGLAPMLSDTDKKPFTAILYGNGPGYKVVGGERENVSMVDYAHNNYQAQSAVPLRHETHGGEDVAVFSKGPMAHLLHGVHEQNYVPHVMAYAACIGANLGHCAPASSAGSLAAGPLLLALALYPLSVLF

This assay concerns the target Alkaline phosphatase, tissue-nonspecific isozyme (Homo sapiens) (UniProt P05186). Nature of the assay: human TNAP enzyme inhibitors, primary screen, biochemical, luminescent, high phosphate acceptor level, uHTS (AID 1135).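 Further: plate controls were DMSO wells for no effect and EDTA-quenched wells as full inhibition for full effect.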 The settings on record: purified TNAP, CDP-star luminescence, 1 M DEA; at 20 µM; stronger effect = higher value.
For `COc1ccc(OP(C)(=O)Nc2cccc(F)c2)cc1` (stereo unspecified), the inhibition is inactive: 1.1%.

For `Cc1cc(C)cc(OP(C)(N)=O)c1` (stereo unspecified), the inhibition is inactive: -7.7%.

In the case of `CCN(CC)CCCOC(=O)C(O)(c1ccccc1)c1ccccc1`, the inhibition is inactive: -4.3%.

Turning to `CN(C)CCOC(=O)C(O)(c1ccccc1)C1CCCC1` (stereo unspecified), the inhibition was inactive: -1.9%.

Regarding `COc1ccc(OP(C)(=O)Nc2ccccn2)cc1` (stereo unspecified), the inhibition is inactive: -5.7%.

As for `O=[N+]([O-])c1cc([N+](=O)[O-])c(Nc2ccccn2)c([N+](=O)[O-])c1`, the inhibition was inactive: 33.4%.

`Cc1c(NP(C)(=O)Oc2ccc(C(C)C)cc2)c(=O)n(-c2ccccc2)n1C` (stereo unspecified): the inhibition is inactive: -6.8%.

For `CCc1ccc(OP(C)(=O)O)cc1`, the inhibition is inactive: -1.5%.

For the compound `CP(=O)(Nc1ccccn1)Oc1ccccc1` (stereo unspecified), the inhibition is inactive: 1.7%.

Take `COc1ccccc1OP(C)(=O)Nc1ccc(C)cc1C` (stereo unspecified): the inhibition is inactive: -0.5%.

Regarding `Cc1cc(C)cc(OP(C)(=O)Nc2cccc(C(F)(F)F)c2)c1` (stereo unspecified), the inhibition was inactive: -1.1%.

Regarding `COc1ccc(OP(C)(=O)Nc2ccccc2Br)cc1` (stereo unspecified), the inhibition was inactive: -3.4%.

Regarding `COc1ccccc1OP(C)(=O)Nc1ccc(C)c(C)c1` (stereo unspecified), the inhibition was inactive: 2%.

Turning to `Cc1nc2ccc3ccccc3c2o1.O=[N+]([O-])c1cc([N+](=O)[O-])c(O)c([N+](=O)[O-])c1`, the inhibition is inactive: 2.7%.

For `CP(=O)(OCCOc1ccccc1)OCCOc1ccccc1`, the inhibition was inactive: -0.4%.

As for `CP(=O)(Nc1ccc(Cl)cc1Cl)Oc1ccccc1` (stereo unspecified), the inhibition is inactive: -2.3%.

On to `CP(=O)(OC12CC3CC(CC(C3)C1)C2)OC12CC3CC(CC(C3)C1)C2`, for which the inhibition was inactive: -1.1%.

For `CCOC(=O)c1ccc(NP(C)(=O)Oc2ccc(Cl)cc2)cc1` (stereo unspecified), the inhibition was inactive: 0.4%.

As to `CCN(CC)CC(O)COC(=O)C(O)(c1ccccc1)C1CCCCC1` (stereo unspecified), the inhibition is inactive: -3.8%.

For `COc1ccc(OP(C)(=O)Nc2ccc(Br)cc2)cc1` (stereo unspecified), the inhibition was inactive: -7.8%.

In the case of `CP(=O)(Oc1ccccc1)N1CCOC1=O` (stereo unspecified), the inhibition is inactive: -4.4%.

Regarding `CCc1ccc(OP(C)(=O)Nc2cccnc2)cc1` (stereo unspecified), the inhibition was inactive: -1.8%.

Regarding `COc1ccccc1OP(C)(=O)Nc1c(C)n(C)n(-c2ccccc2)c1=O` (stereo unspecified), the inhibition was inactive: -3.3%.

With `CP(=O)(Nc1ccc(Cl)cc1)Oc1ccc(F)cc1` (stereo unspecified), the inhibition was inactive: -7%.

With `CC(C)(C)c1ccc(OP(C)(=O)O)cc1`, the inhibition was inactive: 0.3%.

Take `COc1ccccc1OP(C)(=O)Nc1ccccc1Br` (stereo unspecified): the inhibition was inactive: 1.5%.

Take `CN(C)C(=O)c1c([N+](=O)[O-])cc([N+](=O)[O-])cc1[N+](=O)[O-]`: the inhibition is inactive: -0.4%.

With `CCOP(C)(=S)SCC(=O)NC(C)(CC)C(=O)O` (stereo unspecified), the inhibition was inactive: 0.3%.

Regarding `CP(=O)(Nc1ccc2c(c1)OCCO2)Oc1ccccc1` (stereo unspecified), the inhibition was inactive: -0.9%.

Take `Cc1ccccc1NP(C)(=O)Nc1ccccc1C`: the inhibition is inactive: -2.4%.

Turning to `COc1ccc(OP(C)(=O)Nc2cccc(Br)c2)cc1` (stereo unspecified), the inhibition is inactive: -7.4%.

Take `COc1ccc(NP(C)(=O)Oc2ccccc2OC)cc1` (stereo unspecified): the inhibition was inactive: -0.5%.

As to `CN(C)CCOC(=O)C(O)(c1ccccc1)C1CCCCC1` (stereo unspecified), the inhibition was inactive: -0.2%.

As for `O=[N+]([O-])c1cc([N+](=O)[O-])c(NCC2CCS(=O)(=O)C2)c([N+](=O)[O-])c1` (stereo unspecified), the inhibition is inactive: 7.4%.

Regarding `COc1ccc(OP(C)(=O)Nc2ccc(SC(F)(F)F)cc2)cc1` (stereo unspecified), the inhibition is inactive: -9.3%.

As to `CCOC(=O)c1ccc(NP(C)(=O)Oc2ccc(F)cc2)cc1` (stereo unspecified), the inhibition was inactive: -3.2%.

`CCN(CC)CCCOC(=O)C(O)(c1ccccc1)C1CCCCC1` (stereo unspecified): the inhibition is inactive: 0.8%.

Turning to `CP(=O)(Nc1ccccc1)Oc1ccc(F)cc1` (stereo unspecified), the inhibition is inactive: -3.9%.

As for `CC(C)c1ccc(OP(C)(=O)Nc2ccc(SC(F)(F)F)cc2)cc1` (stereo unspecified), the inhibition was inactive: -1.7%.

On to `CP(=O)(Nc1ccccc1F)Oc1ccccc1` (stereo unspecified), for which the inhibition is inactive: -8.7%.

Regarding `O=C(OCCN1CCN(CCOCc2ccccc2)CC1)C(O)(c1ccccc1)c1ccccc1`, the inhibition was inactive: -4.4%.

The record behind these values is PubChem BioAssay AID1135 (Sanford-Burnham Center for Chemical Genomics, 2008).
